# Measurements as given in PubChem BioAssay AID1053197 (The Scripps Research Institute Molecular Screening Center, 2014).
# Amino acid sequences for entries named in this document (tags omitted).
# UniProt Q9HAT2, whole entry: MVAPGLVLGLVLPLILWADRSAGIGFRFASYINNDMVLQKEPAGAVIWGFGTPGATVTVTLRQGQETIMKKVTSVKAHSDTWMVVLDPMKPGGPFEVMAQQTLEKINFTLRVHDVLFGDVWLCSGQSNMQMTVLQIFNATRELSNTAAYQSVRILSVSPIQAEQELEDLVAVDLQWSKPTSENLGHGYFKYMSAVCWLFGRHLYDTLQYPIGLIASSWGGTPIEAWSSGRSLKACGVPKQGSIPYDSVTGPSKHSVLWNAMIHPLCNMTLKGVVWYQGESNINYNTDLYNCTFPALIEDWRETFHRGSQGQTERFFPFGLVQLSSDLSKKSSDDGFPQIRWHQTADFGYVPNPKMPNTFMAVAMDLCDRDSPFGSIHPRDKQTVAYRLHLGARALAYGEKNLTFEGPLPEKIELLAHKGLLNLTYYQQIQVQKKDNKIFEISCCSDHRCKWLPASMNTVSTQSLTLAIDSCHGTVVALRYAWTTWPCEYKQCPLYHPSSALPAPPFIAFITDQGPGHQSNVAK
# This is a selection; strong and weak results do not stand in their true shares. Some salts or complexes appear as unconnected parts, following the source record. Calls of active or inactive are those of the source.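 How the source made its calls: active means inhibition above a cutoff: mean of compounds within the control limits plus 3 SD of those (cut at about 17% in these data); inactive means the rest.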
# Target: Sialate O-acetylesterase (Homo sapiens) (UniProt Q9HAT2)
# Assay: blockers of sialate O-acetylesterase activity-probe labeling – biochemical, fluorescence polarization, FP-Rh probe, 1536-well HTS, primary screen (AID 1053197);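 further: 0% = plate median of compound wells and 100% = probe without SIAE protein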
# Conditions: SIAE FP-Rh probe binding, at 9.66 µM, active compounds read high
row,Structure (SMILES),inhibition
1,COc1ccc(-c2ccccn2)cc1.O=[N+]([O-])c1cc([N+](=O)[O-])c(O)c([N+](=O)[O-])c1,inactive: -5.1%
2,CCCOc1ccc(NP(C)(=O)Oc2ccc(Cl)cc2)cc1 (centres undefined),inactive: 13.7%
3,CP(=O)(Nc1ccc(SC(F)(F)F)cc1)Oc1ccccc1 (centres undefined),inactive: -5.42%
4,COc1ccccc1OP(C)(=O)Nc1c(C)cccc1C (centres undefined),inactive: 5.53%
5,CN1CCCCC1COC(=O)C1(O)c2ccccc2CCc2ccccc21 (centres undefined),active: 17.1%
6,O=[N+]([O-])c1cc([N+](=O)[O-])c(Nc2nnnn2CCO)c([N+](=O)[O-])c1,inactive: 1.22%
7,CCOC(=O)C(CC)C1=NC(C)(C)Cc2ccccc21.O=[N+]([O-])c1cc([N+](=O)[O-])c(O)c([N+](=O)[O-])c1 (centres undefined),inactive: -2.54%
8,Cc1nc2ccc3ccccc3c2s1.O=[N+]([O-])c1cc([N+](=O)[O-])c(O)c([N+](=O)[O-])c1,inactive: 0.61%
9,O=[N+]([O-])c1cc([N+](=O)[O-])c(-c2cnn(-c3ccccc3)c2)c([N+](=O)[O-])c1,inactive: -0.39%
10,CN(Cc1cccnc1)C(=O)COc1ccc(Cl)c(Cl)c1.O=[N+]([O-])c1cc([N+](=O)[O-])c(O)c([N+](=O)[O-])c1,inactive: -0.5%
11,O=[N+]([O-])c1cc([N+](=O)[O-])c(-n2nnc3ccccc32)c([N+](=O)[O-])c1,inactive: -3.37%
12,Cc1ccc(C)c(NP(C)(=O)Oc2ccccc2)c1 (centres undefined),inactive: -0.12%
13,Cc1cc(C)cc(OP(C)(=O)Nc2ccccn2)c1 (centres undefined),inactive: 3.76%
14,CP(=O)(Nc1cccc(Br)c1)Oc1ccccc1 (centres undefined),inactive: -2.4%
15,CCOC(=O)c1ccc(NP(C)(=O)Oc2cc(C)cc(C)c2)cc1 (centres undefined),inactive: 0.84%
16,Cc1cc(C)cc(OP(C)(=O)Nc2ccc(C)cc2C)c1 (centres undefined),inactive: 8.8%
17,COc1ccccc1OP(C)(=O)Nc1cccc(Br)c1 (centres undefined),inactive: -2.93%
18,CC1=NCCc2c1[nH]c1ccccc21.O=[N+]([O-])c1cc([N+](=O)[O-])c(O)c([N+](=O)[O-])c1,inactive: -0.04%
19,O=C(O)c1cccc(Nc2c([N+](=O)[O-])cc([N+](=O)[O-])cc2[N+](=O)[O-])c1,inactive: 0.09%
20,Cc1cc(C)cc(OP(C)(N)=O)c1 (centres undefined),inactive: 8.66%
21,COc1ccccc1OP(C)(=O)Nc1cc(Cl)ccc1C (centres undefined),inactive: -1.11%
22,COc1ccc(OP(C)(=O)Nc2cccc(F)c2)cc1 (centres undefined),inactive: -2.16%
23,COc1ccccc1OP(C)(=O)Nc1ccc(C)cc1 (centres undefined),inactive: -0.43%
24,Cc1ccc(NP(C)(=O)Oc2ccccc2)c(C)c1 (centres undefined),inactive: 0.64%
25,CCOC(=O)c1ccc(NP(C)(=O)Oc2ccccc2)cc1 (centres undefined),inactive: 5.86%

row,Structure (SMILES),inhibition
1,O=[N+]([O-])c1ccc2c(c1)C=Nc1ccccc1O2,inactive: 1.9%
2,CC(C)(C)c1ccc(OP(C)(=O)Nc2ccc(SC(F)(F)F)cc2)cc1 (centres undefined),inactive: 1.17%
3,Cc1cccc(C)c1OP(C)(N)=O (centres undefined),inactive: 0.83%
4,O=[N+]([O-])c1cc([N+](=O)[O-])c(Nc2cccnc2)c([N+](=O)[O-])c1,inactive: 3.03%
5,COc1ccccc1-c1ccccn1.O=[N+]([O-])c1cc([N+](=O)[O-])c(O)c([N+](=O)[O-])c1,inactive: -0.2%
6,CCN(CC)CCCOC(=O)C(O)(c1ccccc1)c1ccccc1,inactive: -9.32%
7,CP(=O)(Nc1ccccn1)Oc1ccc(Cl)cc1 (centres undefined),active: 38.6%
8,CCOC(=O)c1ccc(NP(C)(=O)Oc2ccc(OC)cc2)cc1 (centres undefined),inactive: 3.47%
9,O=[N+]([O-])c1cc([N+](=O)[O-])c(O)c([N+](=O)[O-])c1.c1ccc(Oc2ccncc2)cc1,inactive: -2.47%
10,CCOP(C)(=S)SCC(=O)NC(C)C(=O)O (centres undefined),inactive: -2.78%
11,CP(=O)(NC(=O)Nc1ccccc1)Oc1ccccc1 (centres undefined),active: 90.2%
12,CCc1ccc(OP(C)(=O)N2CCN(c3ccc([N+](=O)[O-])cc3)CC2)cc1 (centres undefined),inactive: 2.5%
13,Cc1cc(C)cc(OP(C)(=O)Nc2ccc(SC(F)(F)F)cc2)c1 (centres undefined),inactive: -1.8%
14,Cc1cccc(C)c1OP(C)(=O)Nc1ccc(SC(F)(F)F)cc1 (centres undefined),inactive: 4.79%
15,CP(=O)(Nc1ccc(SC(F)(F)F)cc1)Oc1ccc(Cl)cc1 (centres undefined),inactive: 0.3%
16,CP(=O)(Oc1ccccc1)OC(c1ccccc1)C(F)(F)F (centres undefined),inactive: 0.96%
17,CP(=O)(Nc1ccccc1Br)Oc1ccccc1 (centres undefined),inactive: -5.07%
18,COc1ccccc1OP(C)(=O)Nc1ccccc1 (centres undefined),inactive: -0.66%
19,CP(=S)(Nn1cnnc1)Oc1ccccc1 (centres undefined),inactive: 2.11%
20,CCOC(=O)c1ccc(NP(C)(=O)Oc2ccc(Cl)cc2)cc1 (centres undefined),inactive: 2.89%
21,CP(=O)(OC12CC3CC(CC(C3)C1)C2)OC12CC3CC(CC(C3)C1)C2,inactive: -0.65%
22,Nc1ccc2c(ccc3cccnc32)n1.O=[N+]([O-])c1cc([N+](=O)[O-])c(O)c([N+](=O)[O-])c1,inactive: -6.73%
23,CN(C)C(=O)c1c([N+](=O)[O-])cc([N+](=O)[O-])cc1[N+](=O)[O-],inactive: -3.27%
24,COc1ccccc1OP(C)(=O)Nc1ccccc1Br (centres undefined),inactive: -4.91%
25,CC(C)(C)c1ccc(OP(C)(=O)O)cc1,inactive: 6.04%

row,Structure (SMILES),inhibition
1,CP(=O)(Nc1ccc(Cl)cc1)Oc1ccc(F)cc1 (centres undefined),inactive: -9.44%
2,COc1ccccc1OP(C)(=O)Nc1c(C)n(C)n(-c2ccccc2)c1=O (centres undefined),inactive: 2.74%
3,O=C(OCCCN1CCCC1)C(O)(c1ccccc1)C1CCCCC1 (centres undefined),inactive: 4.54%
4,CP(=O)(Oc1ccccc1)N1CCOC1=O (centres undefined),inactive: 0.59%
5,CCc1ccc(OP(C)(=O)Nc2cccnc2)cc1 (centres undefined),inactive: 10.4%
6,CCN(CC)CC(O)COC(=O)C(O)(c1ccccc1)C1CCCCC1 (centres undefined),inactive: 2.34%
7,COc1ccc(OP(C)(=O)Nc2ccc(Br)cc2)cc1 (centres undefined),inactive: -3.42%
8,CP(=O)(Nc1ccccn1)Oc1ccccc1 (centres undefined),inactive: -2.09%
9,COc1ccccc1OP(C)(=O)Nc1ccc(C)cc1C (centres undefined),inactive: 8.7%
10,CCc1ccc(OP(C)(=O)O)cc1,inactive: -0.94%
11,Cc1c(NP(C)(=O)Oc2ccc(C(C)C)cc2)c(=O)n(-c2ccccc2)n1C (centres undefined),inactive: 2.56%
12,O=[N+]([O-])c1cc([N+](=O)[O-])c(Nc2ccccn2)c([N+](=O)[O-])c1,inactive: 0.91%
13,COc1ccc(OP(C)(=O)Nc2ccccn2)cc1 (centres undefined),inactive: 16.7%
14,CN(C)CCOC(=O)C(O)(c1ccccc1)C1CCCC1 (centres undefined),inactive: 3.68%
15,COc1ccccc1OP(C)(=O)Nc1ccc(Br)cc1 (centres undefined),inactive: 2.76%
16,CCCCCCCCCCCCCCCC1C[N+](C)(C)CCOP(C)(=O)O1 (centres undefined),inactive: -3.22%
17,CP(=O)(Nc1ccc(Cl)cc1Cl)Oc1ccccc1 (centres undefined),inactive: -1.04%
18,CP(=O)(OCCOc1ccccc1)OCCOc1ccccc1,inactive: -4.5%
19,COc1ccccc1OP(C)(=O)Nc1ccc(C)c(C)c1 (centres undefined),inactive: -3.34%
20,COc1ccc(OP(C)(=O)Nc2ccccc2Br)cc1 (centres undefined),inactive: 2.65%
21,O=C1C(O)=C([N+](=O)[O-])C(=O)C(O)=C1[N+](=O)[O-],inactive: 7.86%
22,Cc1cc(C)cc(OP(C)(=O)Nc2cccc(C(F)(F)F)c2)c1 (centres undefined),inactive: -7.95%
23,CP(=O)(Nc1ccccc1)Oc1ccc(F)cc1 (centres undefined),inactive: -4.14%
24,CCCCCOc1ccc(NP(C)(=O)Oc2ccc(Cl)cc2Cl)cc1 (centres undefined),inactive: -3.92%
25,O=[N+]([O-])c1cc([N+](=O)[O-])c(OC2CCCCC2O)c([N+](=O)[O-])c1 (centres undefined),inactive: 0.99%

row,Structure (SMILES),inhibition
1,Cc1c([N+](=O)[O-])cc([N+](=O)[O-])c(Br)c1[N+](=O)[O-],inactive: -2.83%
2,CCN(CC)CCCOC(=O)C(O)(c1ccccc1)C1CCCCC1 (centres undefined),inactive: 1.16%
3,CCOC(=O)c1ccc(NP(C)(=O)Oc2ccc(F)cc2)cc1 (centres undefined),inactive: -6.02%
4,COc1ccc(OP(C)(=O)Nc2ccc(SC(F)(F)F)cc2)cc1 (centres undefined),inactive: -3.57%
5,CCN(CC)CCCNc1ccccc1[N+](=O)[O-].O=[N+]([O-])c1cc([N+](=O)[O-])c(O)c([N+](=O)[O-])c1,inactive: -6.44%
6,COc1ccc2c(c1O)-c1c(O)c(OC)cc3c1[C@H](C2)[N+](C)(C)CC3.O=[N+]([O-])c1cc([N+](=O)[O-])c([O-])c([N+](=O)[O-])c1[O-],inactive: 3.62%
7,O=C(OC1CN2CCC1CC2)c1ccc([N+](=O)[O-])cc1 (centres undefined),inactive: 0.62%
8,O=C(OCCN1CCN(CCOCc2ccccc2)CC1)C(O)(c1ccccc1)c1ccccc1,inactive: -2.33%
9,CP(=O)(Nc1ccccc1F)Oc1ccccc1 (centres undefined),inactive: 4.4%
10,CC(C)c1ccc(OP(C)(=O)Nc2ccc(SC(F)(F)F)cc2)cc1 (centres undefined),inactive: 2.79%
11,O=[N+]([O-])c1cc([N+](=O)[O-])c(Nc2ccc(Cl)cc2)c([N+](=O)[O-])c1,inactive: 6.82%
12,Cc1ccccc1NP(C)(=O)Nc1ccccc1C,inactive: -7.17%
13,O=[N+]([O-])c1cc([N+](=O)[O-])c(C(F)(F)F)c([N+](=O)[O-])c1O,inactive: -4.13%
14,CP(=O)(Nc1ccc2c(c1)OCCO2)Oc1ccccc1 (centres undefined),inactive: -4.31%
15,CCOP(C)(=S)SCC(=O)NC(C)(CC)C(=O)O (centres undefined),inactive: 0.32%
16,CCOP(=O)(CC)OCC,inactive: -1.4%
17,CP(=O)(Nc1ccc(SC(F)(F)F)cc1)Oc1ccc(F)cc1 (centres undefined),inactive: 1.75%
18,Cc1c(C(c2ccc3c(c2)OCO3)c2c(C)n(C)n(-c3ccccc3)c2=O)c(=O)n(-c2ccccc2)n1C.O=[N+]([O-])c1cc([N+](=O)[O-])c(O)c([N+](=O)[O-])c1,inactive: 8.19%
19,O=[N+]([O-])c1ccc(OP2(=O)COCCO2)cc1 (centres undefined),inactive: -1.13%
20,O=[N+]([O-])c1cc([N+](=O)[O-])c(NCC2CCS(=O)(=O)C2)c([N+](=O)[O-])c1 (centres undefined),inactive: 1.23%
21,Cc1cc(-c2cccc3ccccc23)c(C)cn1.O=[N+]([O-])c1cc([N+](=O)[O-])c(O)c([N+](=O)[O-])c1,inactive: 1.04%
22,CN(C)CCOC(=O)C(O)(c1ccccc1)C1CCCCC1 (centres undefined),inactive: -7.61%
23,COc1ccc(NP(C)(=O)Oc2ccccc2OC)cc1 (centres undefined),inactive: 9.36%
24,COc1ccc(OP(C)(=O)Nc2cccc(Br)c2)cc1 (centres undefined),inactive: -2.3%
